Reference: PubChem BioAssay (Tox21)
Several values for one entry are separate records, joined by “and”; a condition that tells them apart may be missing. Identical values can stand only once. Only a part is listed here, and it is no random draw. Results filed as inconclusive are left out. Activity calls are given as the source filed them. Unless noted, calls come from the whole dose curve; as a rule, active = well fitted curve in the direction sought with a large enough effect in the repeat runs; inconclusive = weak or mixed curves; inactive = no such curve, though single readings can be large; an effect the other way counts as inactive or inconclusive.

The chains behind the UniProt entries cited, without tags or fusion partners. Where a name states a change or a piece, a line headed by the entry shows the natural chain unless it says otherwise.
UniProt P04150: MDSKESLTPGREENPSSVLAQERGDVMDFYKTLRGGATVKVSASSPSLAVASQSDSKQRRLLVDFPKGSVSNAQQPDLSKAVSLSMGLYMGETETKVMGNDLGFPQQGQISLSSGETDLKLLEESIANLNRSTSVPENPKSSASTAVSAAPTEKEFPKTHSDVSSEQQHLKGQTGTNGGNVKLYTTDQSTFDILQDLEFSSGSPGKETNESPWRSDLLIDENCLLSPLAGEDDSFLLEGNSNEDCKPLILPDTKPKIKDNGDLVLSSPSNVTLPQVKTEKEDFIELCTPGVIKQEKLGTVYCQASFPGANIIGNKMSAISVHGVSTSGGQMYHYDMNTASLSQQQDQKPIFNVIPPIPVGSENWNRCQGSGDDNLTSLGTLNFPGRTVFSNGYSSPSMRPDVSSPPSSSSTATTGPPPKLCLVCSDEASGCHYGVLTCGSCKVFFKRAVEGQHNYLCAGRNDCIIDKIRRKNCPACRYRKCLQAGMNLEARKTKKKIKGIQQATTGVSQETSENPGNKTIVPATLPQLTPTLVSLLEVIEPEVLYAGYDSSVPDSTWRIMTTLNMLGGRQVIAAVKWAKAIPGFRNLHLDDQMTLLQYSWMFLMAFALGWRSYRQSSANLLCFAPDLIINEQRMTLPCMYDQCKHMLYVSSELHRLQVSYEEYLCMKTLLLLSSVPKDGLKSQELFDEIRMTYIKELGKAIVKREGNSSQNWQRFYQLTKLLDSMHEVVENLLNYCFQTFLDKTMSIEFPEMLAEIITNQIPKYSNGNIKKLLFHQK
UniProt P10275: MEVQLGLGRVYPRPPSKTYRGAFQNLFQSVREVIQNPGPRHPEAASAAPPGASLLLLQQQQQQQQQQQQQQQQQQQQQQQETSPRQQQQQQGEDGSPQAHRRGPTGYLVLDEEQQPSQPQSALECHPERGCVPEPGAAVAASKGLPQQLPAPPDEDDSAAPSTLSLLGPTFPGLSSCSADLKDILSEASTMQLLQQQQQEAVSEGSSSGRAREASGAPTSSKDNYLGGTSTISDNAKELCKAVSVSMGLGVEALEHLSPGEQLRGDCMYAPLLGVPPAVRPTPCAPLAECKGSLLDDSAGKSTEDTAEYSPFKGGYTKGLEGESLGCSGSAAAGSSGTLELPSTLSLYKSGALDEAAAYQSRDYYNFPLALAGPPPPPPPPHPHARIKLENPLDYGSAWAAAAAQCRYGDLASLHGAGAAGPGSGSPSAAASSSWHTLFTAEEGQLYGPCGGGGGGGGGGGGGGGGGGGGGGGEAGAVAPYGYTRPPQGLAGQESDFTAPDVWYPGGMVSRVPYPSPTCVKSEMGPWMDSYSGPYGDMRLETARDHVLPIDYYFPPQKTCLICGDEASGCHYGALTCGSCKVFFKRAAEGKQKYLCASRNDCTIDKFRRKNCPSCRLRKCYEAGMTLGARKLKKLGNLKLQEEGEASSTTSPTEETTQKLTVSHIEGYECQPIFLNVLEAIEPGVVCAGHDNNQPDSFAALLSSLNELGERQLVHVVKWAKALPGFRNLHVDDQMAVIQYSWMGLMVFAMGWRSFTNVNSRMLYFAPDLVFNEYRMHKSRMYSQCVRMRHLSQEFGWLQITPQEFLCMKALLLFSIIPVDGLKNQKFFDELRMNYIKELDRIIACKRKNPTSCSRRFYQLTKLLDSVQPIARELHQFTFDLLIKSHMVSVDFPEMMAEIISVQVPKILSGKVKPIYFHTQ
UniProt P03372, whole entry, looked up: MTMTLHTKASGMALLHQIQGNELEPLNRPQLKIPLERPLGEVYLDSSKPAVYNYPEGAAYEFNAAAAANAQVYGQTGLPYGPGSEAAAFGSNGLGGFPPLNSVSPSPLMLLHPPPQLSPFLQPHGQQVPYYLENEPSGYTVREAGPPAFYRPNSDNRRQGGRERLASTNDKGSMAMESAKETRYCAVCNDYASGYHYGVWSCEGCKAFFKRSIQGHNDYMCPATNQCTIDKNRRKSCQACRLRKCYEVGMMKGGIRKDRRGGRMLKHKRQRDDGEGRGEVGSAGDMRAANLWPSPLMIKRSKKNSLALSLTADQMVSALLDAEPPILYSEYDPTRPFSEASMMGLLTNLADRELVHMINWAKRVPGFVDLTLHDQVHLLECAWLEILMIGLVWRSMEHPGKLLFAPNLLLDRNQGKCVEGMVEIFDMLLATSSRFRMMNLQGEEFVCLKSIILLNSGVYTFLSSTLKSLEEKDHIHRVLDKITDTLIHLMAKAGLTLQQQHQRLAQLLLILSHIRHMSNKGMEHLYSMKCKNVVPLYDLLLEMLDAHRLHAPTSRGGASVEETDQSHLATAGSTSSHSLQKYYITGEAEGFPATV

Columns and labels:
[1] = qHTS assay to test for compound auto fluorescence at 590 nm (red) in HEK293 cell free culture (AID 720683); conditions: cell-free medium autofluorescence, Ex540/Em590 red; at 91.3 µM (top of the series) unless noted; note: % is set by controls: 0 for no effect and ±100 for the full control effect
Procedure, shortened: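 Cell-free wells of DMEM with 10% FBS received compound, and intrinsic fluorescence was read at excitation/emission 540/590 nm. Values expressed as equivalence to Rose Bengal sodium.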

[2] = qHTS assay to test for compound auto fluorescence at 590 nm (red) in HepG2 cell free culture (AID 720684); conditions: cell-free medium autofluorescence, red 540/590 nm; at 91.3 µM (top of the series) unless noted; note: % is set by controls: 0 for no effect and ±100 for the full control effect
[3] = qHTS assay to test for compound auto fluorescence at 460 nm (blue) in HepG2 cell free culture (AID 720685); conditions: Cell-free culture medium, blue autofluorescence 405/460 nm; at 91.3 µM (top of the series) unless noted; note: % is set by controls: 0 for no effect and ±100 for the full control effect
Procedure, shortened: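 Compound (23 nL) or DMSO pinned into cell-free MEM with 10% FBS; blue fluorescence read at 405/460 nm excitation/emission, expressed as auto-fluorescence equivalency to triamterene.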

[4] = qHTS assay to test for compound auto fluorescence at 535 nm (green) in HepG2 cell free culture (AID 720686); conditions: Cell-free medium, green autofluorescence 485/535 nm; at 91.3 µM (top of the series) unless noted; note: % is set by controls: 0 for no effect and ±100 for the full control effect
[5] = qHTS assay to test for compound auto fluorescence at 460 nm (blue) in HepG2 cells (AID 720687); conditions: autofluorescence 405/460 nm, 1 h; at 91.3 µM (top of the series) unless noted; note: % is set by controls: 0 for no effect and ±100 for the full control effect
Procedure, shortened: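 HepG2 cells in MEM with 10% FBS, attached overnight at 37 C, were exposed to compound or DMSO for 1 hr at 37 C, 5% CO2. Blue fluorescence was read at 405/460 nm, with triamterene as reference fluorophore.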

[6] = molecular target: Glucocorticoid receptor (Homo sapiens) (UniProt P04150); assay: qHTS assay to identify small molecule agonists of the glucocorticoid receptor (GR) signaling pathway (AID 720691; active = well fitted activation curve with a large enough effect in the signal ratio in the repeat runs, not every such curve was filed as active; the % refers to the signal ratio; note: % is set by controls: 0 for no effect and ±100 for the full control effect); conditions: GR-bla HeLa, beta-lactamase reporter ratio, 18 h; at 62.4 µM (top of the series) unless noted
[7] = molecular target: Androgen receptor (Homo sapiens) (UniProt P10275); assay: qHTS assay to identify small molecule agonists of the androgen receptor (AR) signaling pathway using the MDA cell line (AID 743040; note: % is set by controls: 0 for no effect and ±100 for the full control effect; nearly all actives have a fitted effect of over 20% in size); conditions: MDA-kb2 AR-luc cells, MMTV luciferase, 16 h, hits give high values
[8] = system: thyroid hormone receptor (rat, GH3 cells); assay: qHTS assay to identify small molecule agonists of the thyroid receptor (TR) signaling pathway (AID 743066; calls by dose curve; note: % is set by controls: 0 for no effect and ±100 for the full control effect); conditions: GH3.TRE-Luc cells, TR agonist luciferase, 24 h; at 83.9 µM (top of the series) unless noted
[9] = qHTS assay to identify small molecule antagonists of the estrogen receptor alpha (ER-alpha) signaling pathway using the BG1 cell line - cell viability counter screen (AID 743081);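 note: compound given together with 17beta-estradiol as the ER stimulus; nearly all actives have a fitted effect of over 45% in size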; note: potency is the fitted concentration of half-maximal effect
[10] = molecular target: Glucocorticoid receptor (Homo sapiens) (UniProt P04150); assay: qHTS assay to identify small molecule antagonists of the glucocorticoid receptor (GR) signaling pathway (AID 720692; active = well fitted inhibition curve with a large enough effect in the signal ratio in the repeat runs, not every such curve was filed as active; the % refers to the signal ratio; note: % is set by controls: 0 for no effect and ±100 for the full control effect); conditions: GR-bla HeLa, beta-lactamase FRET ratio, dexamethasone-stimulated, 18 h; at 58.5 µM (top of the series) unless noted
[11] = qHTS assay to identify small molecule antagonists of the thyroid receptor (TR) signaling pathway (AID 743065); note: nearly all actives have a fitted effect of over 55% in size; note: potency is the fitted concentration of half-maximal effect
Procedure, shortened: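 GH3.TRE-Luc rat pituitary cells (two TREs driving luciferase) were dosed with compound, then stimulated with 1 nM T3 (final) for 23.5 h at 37 C. ONE-Glo luminescence was the read-out, with CellTiter-Fluor fluorescence as the cytotoxicity counter-screen.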

[12] = molecular target: Estrogen receptor (Homo sapiens) (UniProt P03372); assay: qHTS assay to identify small molecule antagonists of the estrogen receptor alpha (ER-alpha) signaling pathway (AID 743069; active = well fitted curve in the direction sought with a large enough effect in the signal ratio in the repeat runs, not every such curve was filed as active; the % refers to the signal ratio; note: % is set by controls: 0 for no effect and ±100 for the full control effect)
Procedure, shortened: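 Reporter cells (ER-alpha-bla, HEK293 background) are conditioned overnight in stripped-serum medium (2% charcoal-stripped FBS). Compound and 17beta-estradiol exposure runs 18 hr at 37C, 5% CO2.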

[13] = qHTS assay to identify small molecule antagonists of the estrogen receptor alpha (ER-alpha) signaling pathway - cell viability counter screen (AID 743074; calls by dose curve;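 note: HEK293 cells carrying ER-alpha-UAS-bla reporter stimulated with 17beta-estradiol; % is set by controls: 0 for no effect and ±100 for the full control effect; nearly all actives have a fitted effect of over 45% in size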)
[14] = molecular target: Estrogen receptor (Homo sapiens) (UniProt P03372); assay: qHTS assay to identify small molecule agonists of the estrogen receptor alpha (ER-alpha) signaling pathway (AID 743075; calls by dose curve)
[15] = molecular target: Estrogen receptor (Homo sapiens) (UniProt P03372); assay: qHTS assay to identify small molecule agonists of the estrogen receptor alpha (ER-alpha) signaling pathway using the BG1 cell line (AID 743079); note: % is set by controls: 0 for no effect and ±100 for the full control effect; nearly all actives have a fitted effect of over 20% in size
[16] = qHTS assay to identify small molecule antagonists of the estrogen receptor alpha (ER-alpha) signaling pathway using the BG1 cell line (AID 743080; calls by dose curve;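 note: BG1 cells stimulated with 17beta-estradiol alongside compound; % is set by controls: 0 for no effect and ±100 for the full control effect; nearly all actives have a fitted effect of over 25% in size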); conditions: BG1Luc4E2 ERE-luciferase antagonist mode, luminescence; at 70.3 µM (top of the series) unless noted
Procedure, shortened: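 Endogenous full-length ER-alpha in BG1-Luc-4E2 cells drives a stably integrated 4×ERE luciferase gene; compounds were tested against 17beta-estradiol over 21.5 h, with luminescence and multiplexed viability fluorescence recorded.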

[17] = qHTS assay for identifying genotoxic compounds that show differential cytotoxicity against isogenic chicken DT40 cell lines with known DNA damage response pathways - Rad54/Ku70 mutant cell line (AID 743015); note: potency is the fitted concentration of half-maximal effect; nearly all actives have a fitted effect of over 60% in size
[18] = molecular target: Androgen receptor (Homo sapiens) (UniProt P10275); assay: qHTS assay to identify small molecule antagonists of the androgen receptor (AR) signaling pathway using the MDA cell line (AID 743042; note: % is set by controls: 0 for no effect and ±100 for the full control effect; nearly all actives have a fitted effect of over 55% in size)

Cc1cc([N+](=O)[O-])cc([N+](=O)[O-])c1O
active: Potency [9] 15.4 µM
inactive: fluorescence, % of fluorescent control [1] -0.577% and -0.473% | fluorescence, % of Rose Bengal [2] 0.0943% and -1.23% | fluorescence, % of fluorescent control [3] -0.798% and -1.1% | fluorescence, % of fluorescein control [4] -0.104% and -0.384% | fluorescence, % of fluorescent control [5] -1.17% and -1.03% | activation [6] -2.48% and -9.78% | activity change ([7]; at 70.3 µM (top of the series)) -11.2% and -12.9% | activation [8] -6.74% and -7.65%

COP(=S)(Cl)OC
inactive: fluorescence, % of fluorescent control [1] -0.136% | fluorescence, % of Rose Bengal [2] -0.05% | fluorescence, % of fluorescent control [3] -0.341% | fluorescence, % of fluorescein control [4] -0.155% | fluorescence, % of fluorescent control [5] -0.108% | activation [6] -2.06% [at 79.2 µM] | activity change, negative = inhibition [10] -28.3% [at 78.9 µM] | Potency [11] | activation [8] -1.32% [at 95.2 µM] | Potency [12] | Potency [13] | Potency [14] | Potency [15] | activity change, negative = inhibition [16] -0.535% [at 95 µM] | Potency [9]

O=[N+]([O-])c1ccc(S(=O)(=O)O)c([N+](=O)[O-])c1
inactive: fluorescence, % of fluorescent control [1] -0.0335% | fluorescence, % of Rose Bengal [2] 0.13% | fluorescence, % of fluorescent control [3] 0.0061% | fluorescence, % of fluorescein control [4] 0.0183% | fluorescence, % of fluorescent control [5] -0.0714% | Potency [13] | Potency [9]

CN(N=O)C(=N)N[N+](=O)[O-]
inactive: fluorescence, % of Rose Bengal [2] -0.281% | fluorescence, % of fluorescent control [3] -0.0049% | fluorescence, % of fluorescein control [4] -0.0048% | fluorescence, % of fluorescent control [5] -0.0141% | activation [6] -4.74% | activity change, negative = inhibition [10] 5.51% | activation [8] -0.0802% | Potency [9]

CN(C(=O)Cc1cccc2occc12)[C@H]1CC[C@@]2(CCCO2)C[C@@H]1N1CCCC1
inactive: fluorescence, % of fluorescent control [1] 0.275% | fluorescence, % of Rose Bengal [2] 0.449% | fluorescence, % of fluorescent control [3] 0.103% | fluorescence, % of fluorescein control [4] -0.0092% | fluorescence, % of fluorescent control [5] 0.0326% | activation [6] -2.22% | activity change, negative = inhibition [10] -0.169% | Potency [11] | activation [8] -1.91% | Potency [12] | Potency [13] | Potency [14] | Potency [15] | activity change, negative = inhibition [16] 2.51%

N#CSc1ccc([N+](=O)[O-])cc1[N+](=O)[O-]
active: Potency [17] 1.37 µM | Potency [11] 12.2 µM
inactive: fluorescence, % of fluorescent control [1] 0.015% | fluorescence, % of Rose Bengal [2] 0.0253% | fluorescence, % of fluorescent control [3] -0.122% | fluorescence, % of fluorescein control [4] -0.026% | fluorescence, % of fluorescent control [5] -0.626%

Cc1cc([N+](=O)[O-])c(O)c([N+](=O)[O-])c1
active: Potency [17] 55 µM
inactive: fluorescence, % of fluorescent control [1] -0.415% | fluorescence, % of Rose Bengal [2] 0.0416% | fluorescence, % of fluorescent control [3] -0.813% | fluorescence, % of fluorescein control [4] -0.504% | fluorescence, % of fluorescent control [5] -0.72% | activation [6] 1.83% [at 79.2 µM] | activity change ([7]; at 95 µM (top of the series)) -3.08% | Potency [18] | activation [8] -0.526% [at 95.2 µM] | Potency [12] | Potency [14]

CCOP(=S)(CC)Sc1ccccc1 (stereo not given)
inactive: fluorescence, % of fluorescent control [1] -0.0948% | fluorescence, % of Rose Bengal [2] -0.0561% | fluorescence, % of fluorescent control [3] -0.0767% | fluorescence, % of fluorescein control [4] -0.0348% | fluorescence, % of fluorescent control [5] -0.0178% | activation [6] 0.777% | Potency [11] | activation [8] -2.49% | Potency [12] | Potency [13] | Potency [14] | activity change, negative = inhibition [16] 4.35% | Potency [9]
